How the values were obtained:
[1] = target: Kappa-type opioid receptor (Homo sapiens) (UniProt P41145); test: Activity was evaluated in human kappa opioid receptors transfected with CHO cells by [35S]GTP-gamma-S, assay
[2] = target: Delta-type opioid receptor (Homo sapiens) (UniProt P41143); test: Activity was evaluated in human delta opioid receptors transfected with CHO cells by [35S]GTP-gamma-S, assay

Chains of the proteins cited; added tags and fusions are not shown.
UniProt P41145, whole entry: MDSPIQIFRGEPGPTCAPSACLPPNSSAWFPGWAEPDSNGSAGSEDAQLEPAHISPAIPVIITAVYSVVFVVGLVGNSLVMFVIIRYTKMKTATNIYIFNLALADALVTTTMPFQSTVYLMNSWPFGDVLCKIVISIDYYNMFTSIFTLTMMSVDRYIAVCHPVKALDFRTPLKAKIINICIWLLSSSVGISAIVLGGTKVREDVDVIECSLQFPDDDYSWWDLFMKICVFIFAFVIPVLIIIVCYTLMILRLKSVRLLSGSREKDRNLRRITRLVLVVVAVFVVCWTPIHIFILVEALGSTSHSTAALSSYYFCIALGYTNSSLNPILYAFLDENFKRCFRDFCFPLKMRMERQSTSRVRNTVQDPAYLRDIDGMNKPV
UniProt P41143, whole entry: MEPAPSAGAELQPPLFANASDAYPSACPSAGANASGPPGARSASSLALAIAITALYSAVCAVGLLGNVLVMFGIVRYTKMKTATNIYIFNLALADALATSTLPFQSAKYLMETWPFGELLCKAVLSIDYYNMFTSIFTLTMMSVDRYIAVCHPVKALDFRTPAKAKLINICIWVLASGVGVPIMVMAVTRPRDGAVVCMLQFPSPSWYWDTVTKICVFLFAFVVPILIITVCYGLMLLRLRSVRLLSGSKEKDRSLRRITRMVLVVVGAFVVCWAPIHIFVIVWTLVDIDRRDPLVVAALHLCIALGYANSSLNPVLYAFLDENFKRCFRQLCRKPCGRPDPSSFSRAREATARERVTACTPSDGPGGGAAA

SMILES | Stimulation [1] [%] | Stimulation [2] [%]
CN1CC[C@]23c4c5ccc(O)c4O[C@H]2[C@@]24CC[C@@]3(C[C@H]2C(C)(C)C(C)(C)O4)C1C5 | 59 | 88
CO[C@@]12CCC3(C[C@H]1[C@@](C)(O)C(C)(C)C)[C@H]1Cc4ccc(O)c5c4C3(CCN1C)[C@H]2O5 | 50 | 79

From ChEMBL document CHEMBL1132136, “Ring constrained analogues of the orvinols: the furanomorphides” (1999)
